From paper PMC3690480

Target: purified recombinant p110β/Δp85 (mouse) (UniProt Q8BTI9)
Assay: ITC

stoichiometry N: 1
Substance: RAC1·GTPγS (soluble, untagged) (from UniProt P63001 1-192) (natural protein)
